Test system: HK-2
Assay: Cytotoxicity test (MTT assay) in HK-2
Settings: HK-2 2.3 × 10^4 cells/well, 24 h

Amphotericine
Cytotoxicity IC30 Conc. (survival inhibited 30%): 4.23 µg/mL

Neomycin
Cytotoxicity IC30 Conc. (Table 11): 14700 µg/mL

From patent US20110118127A1, “MARKER GENES FOR SCREENING OF DRUG-INDUCED TOXICITY IN HUMAN CELLS AND SCREENING METHOD USING THE SAME” (priority 2009, published 2011)
